Molecular target: Human ACLY (Homo sapiens (Human), UniProt P53396)
Assay: ACLY enzyme activity test (ADP-Glo luminescence)
Conditions: read-out: IC50 (μM) Human ACLY, 37° C., 30 minutes
Source text: • Instrument: Envision (PerkinElmer, USA) • Materials: Acl—human ACLY/acly/ATP citrate lyase protein (His tag) was purchased from Sino Biological; kinase assay kit ADP-GLO (promega #V9102).
Experimental principle: In this experiment, the ATP-dependent citrate lyase ACL catalyzes the conversion of citrate to acetyl coenzyme A, which in turn produces malonyl coenzyme A, a precursor molecule for fatty acid synthesis, and this reaction is accompanied by ATP depletion, so the change in ATP can be detected using the ADP-Glo Kinase Assay (#V9102) to indirectly reflect the inhibitory effect of the compound on the enzymatic activity of ACL. This kinase detection kit can quantitatively determine the amount of ADP catalyzed by ACLY enzyme activity. (First, the compound, the enzyme and the substrate are incubated at 37 degrees for half an hour, ADP-Glo& #V9102; reagent is added and incubated for half an hour to terminate the reaction and consume the remaining ATP; then the kinase detection reagent is added (which converts the ADP to ATP while also detecting the newly synthesized ATP using the coupled […] reaction) and incubated for half an hour. The value is read by using Envision.
Experimental method: ADP Glo luminescence method was used for determination. […] The luminous signal was detected using Envision (PerkinElmer, USA). […]

Protein sequences, listed by entry. Tags and fused reporters are not part of them.
UniProt P53396, whole entry: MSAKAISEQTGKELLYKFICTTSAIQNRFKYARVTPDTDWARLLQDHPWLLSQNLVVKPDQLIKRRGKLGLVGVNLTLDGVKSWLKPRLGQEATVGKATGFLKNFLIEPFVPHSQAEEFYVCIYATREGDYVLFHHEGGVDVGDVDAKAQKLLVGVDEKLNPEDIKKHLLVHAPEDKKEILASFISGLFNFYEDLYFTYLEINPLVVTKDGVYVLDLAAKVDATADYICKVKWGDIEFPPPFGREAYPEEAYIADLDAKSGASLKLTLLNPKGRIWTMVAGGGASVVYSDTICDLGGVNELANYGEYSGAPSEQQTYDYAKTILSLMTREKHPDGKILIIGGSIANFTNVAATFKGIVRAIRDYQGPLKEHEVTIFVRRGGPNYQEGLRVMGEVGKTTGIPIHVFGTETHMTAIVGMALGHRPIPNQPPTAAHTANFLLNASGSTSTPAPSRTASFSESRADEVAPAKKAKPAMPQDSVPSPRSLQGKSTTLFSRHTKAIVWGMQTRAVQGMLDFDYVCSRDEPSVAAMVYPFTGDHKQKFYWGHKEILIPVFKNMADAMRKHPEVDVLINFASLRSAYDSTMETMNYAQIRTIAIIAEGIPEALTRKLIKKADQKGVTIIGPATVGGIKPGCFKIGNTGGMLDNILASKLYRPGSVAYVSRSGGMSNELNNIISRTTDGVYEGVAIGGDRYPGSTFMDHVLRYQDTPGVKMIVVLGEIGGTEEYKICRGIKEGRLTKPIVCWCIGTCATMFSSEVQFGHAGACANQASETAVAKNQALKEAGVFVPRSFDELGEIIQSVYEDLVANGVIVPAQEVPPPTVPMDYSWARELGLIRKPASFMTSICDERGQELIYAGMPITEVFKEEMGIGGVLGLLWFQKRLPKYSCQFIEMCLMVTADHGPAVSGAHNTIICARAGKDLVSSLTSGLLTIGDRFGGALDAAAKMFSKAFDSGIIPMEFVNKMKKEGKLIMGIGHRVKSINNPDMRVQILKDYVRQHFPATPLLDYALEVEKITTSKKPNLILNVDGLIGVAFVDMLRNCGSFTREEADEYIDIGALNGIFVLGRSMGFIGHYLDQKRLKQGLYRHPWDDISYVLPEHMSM

`O=C(O)C1(CCCCCC/C=C\CCCCCCC2(C(=O)OCCC34CC5CC(CC(C5)C3)C4)C=CCC2)C=CCC1` (stereo not shown) showed an IC50 of 4.9 µM.

— patent US20250011272A1, “LONG-CHAIN COMPOUND THAT ACTS ON ACLY, PREPARATION METHOD THEREFOR AND USE THEREOF” (SHANGHAIINSTITUTE OF MATERIA MEDICA, CHINESE ACADEMY OF …, priority 2021, published 2025)
